The test system of this assay is isolated rat bladder. As to conditions: tested form: L-(+)-tartrate.

In turn, `O=C(NC[C@@H]1[C@H]2CN(Cc3ccccc3)C[C@@H]12)[C@@](O)(c1ccccc1)C1CCCC1` [Compound No. 32, (2S)-(−)(1α,5α,6α)-N-[3-benzyl-3-azabicyclo[3.1.0]hexyl-6-(aminomethyl)-yl]-2-hydroxy-2-cyclopentyl-2-phenyl acetamide] yielded a Kb of 15.8 nM.

The values are drawn from patent publication US20070004791A1, “3,6-disubstituted azabicyclo {3.1.0} hexane derivatives useful as muscarnic receptor antagonists” (priority 2002, published 2007).
